This experiment deals with T1, rat α2B (Rattus norvegicus, UniProt P19328).
T1 construct: expressed in transfected cells; host or cells: CHO cells (CHO-RNG)
Kind of experiment: Receptor binding, [3H]rauwolscine, CHO-RNG cells expressing rat α2B. As to conditions: 22° C., 30 min. As for the experimental part:
Cell preparation: Chinese hamster ovary (CHO) cells expressing the human α2A and human α2C (CHO-C10 and CHO-C4 respectively) receptors and CHO cells (CHO-RNG) expressing the rat α2B, adrenoceptor were grown to near confluence in Dulbecco's modified Eagle's medium supplemented with 10% fetal bovine serum using standard cell culture methods. Cells were harvested by scraping and placed into cold buffer of the following composition: 50 mM Tris-HCl, 5 mM EDTA, pH 7.4). […] The pellet fraction was washed (resuspended in Tris-HCl, pH 8 buffer and centrifuged for 15-20 minutes at 49,000× g) 2 times and stored at -100° until binding assay.
Binding Studies: The radioligands [^3 H]rauwolscine (specific activity 80 Ci/mmol) and [^3 H]prazosin (specific activity 76 Ci/mmol) were obtained from New England Nuclear, Boston, Mass. […] The filters were then oven dried and transferred to scintillation vials containing 10 mL of Beckman's Ready Protein® scintillation cocktail for counting. […] Protein concentrations were determined with a protein assay kit from Bio Rad. Binding isotherms, equilibrium dissociation and affinity constants were analyzed and determined by the non-linear least squares curve fitting programs EBDA (BioSoft) or AccuFit Competition/Saturation by Beckman. […]

The chains behind the UniProt entries cited, without tags or fusion partners.
UniProt P19328, whole entry: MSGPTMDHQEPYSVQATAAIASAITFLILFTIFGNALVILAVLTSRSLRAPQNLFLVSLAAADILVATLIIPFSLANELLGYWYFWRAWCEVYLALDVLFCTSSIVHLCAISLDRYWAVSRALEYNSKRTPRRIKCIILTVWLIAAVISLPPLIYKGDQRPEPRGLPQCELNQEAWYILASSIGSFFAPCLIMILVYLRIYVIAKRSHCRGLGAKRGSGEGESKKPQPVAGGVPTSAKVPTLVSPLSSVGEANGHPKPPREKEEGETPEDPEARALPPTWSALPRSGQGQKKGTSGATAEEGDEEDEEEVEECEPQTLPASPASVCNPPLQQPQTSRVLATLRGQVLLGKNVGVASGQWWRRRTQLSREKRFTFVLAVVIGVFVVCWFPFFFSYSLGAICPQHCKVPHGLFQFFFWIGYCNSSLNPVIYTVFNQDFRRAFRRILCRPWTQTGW

For orientation: Ki means the equilibrium dissociation constant of an inhibitor or competing ligand from its target. A lower Ki goes with higher affinity. Molecule `Brc1c(NC2=NCCN2)ccc2nccnc12` [Example 5] came in with a Ki of 52 nM.

The values are drawn from US6087361A, “Aryl-imidazolines and aryl-imidazoles useful as α-2 adrenergic agonists without cardiovascular side effects” (Allergan Sales, Inc., priority 1997, dated 2000).
